System: HCVpp
Assay type: cell-based, hepatitis C virus
Conditions: Huh-7, drug 16 h at a range of concentrations before HCVpp (FIG. 3b)

Compound	HCV infection of naive cells (HCVpp infectivity)
CC(C)(C)OC(=O)CN(Cc1ccc(Cl)cc1)Cc1ccc([N+](=O)[O-])s1 [GSK4112]	protect naïve cells from HCV infection in a dose-dependent manner
CCOC(=O)N1CCC(CN(Cc2ccc(Cl)cc2)Cc2ccc([N+](=O)[O-])s2)C1 (centres unmarked) [SR9009]	protect naïve cells from HCV infection in a dose-dependent manner

From US20210102215A1, “TREATMENT AND PREVENTION OF VIRAL INFECTION” (priority 2016, published 2021)
